This test concerns the target Mu-type opioid receptor (Homo sapiens, UniProt P35372).

SMILES strings stand for the structures.

In turn, `COc1ccc2c3c1O[C@H]1C4(OC)CC[C@@]5(C[C@]4(C)COCc4cc6ccccc6s4)[C@@H](C2)N(C)CC[C@]315` yielded an EC50 of 74.2 nM.

Broadly, the EC50 is the concentration giving half of the maximal effect. Low readings indicate an effect from little substance, high ones a need for much substance.
